Reference: article PMC12022901 (Frontiers in Pharmacology, 2025)
Entries after “also recorded” stand apart in the source; their conditions may differ.

How the values were obtained:
[1] = clinical; details: for CL/F / t1/2 / Vd/F / Tmax / AUC(0-inf) / Cmax: GM; for Vd/F / Tmax / AUC(0-inf) / Cmax: human, in vivo; for Vd/F: Vz/F
[2] = Pharmacokinetics of factor Xa inhibitors at baseline and at gabapentin steady-state (open-label fixed-sequence DDI trial); details: for AUC(0-inf) / Cmax: human, in vivo, po, GM
From the text: (§1) A p-value < 0.05 was considered significant.

[3] = Pharmacokinetics of factor Xa inhibitors at baseline and at pregabalin steady-state (open-label fixed-sequence DDI trial); details: for AUC(0-inf) / Cmax: human, in vivo, po, GM
From the text: as §1

[4] = 60 mg, 60 mg edoxaban, at carbamazepine steady-state
[5] = po, oral microdose cocktail, during carbamazepine steady-state
[6] = po, oral microdose cocktail, baseline
[7] = po, oral microdose cocktail, at carbamazepine steady-state
[8] = oral microdose cocktail, baseline
[9] = 60 mg, single oral 60 mg edoxaban, during gabapentin steady-state
[10] = oral microdose cocktail, during gabapentin steady-state
[11] = 60 mg, single oral 60 mg edoxaban, during pregabalin steady-state
[12] = oral microdose cocktail, before pregabalin
[13] = oral microdose cocktail, during pregabalin steady-state

CN1CCc2nc(C(=O)N[C@@H]3C[C@@H](C(=O)N(C)C)CC[C@@H]3NC(=O)C(=O)Nc3ccc(Cl)cn3)sc2C1 [Edoxaban, edoxaban]
CL/F ([1]; 60 mg edoxaban, at carbamazepine steady-state): 87 L/h
CL/F ([1]; 60 mg edoxaban, baseline): 42 L/h
t1/2 ([1]; 60 mg edoxaban, baseline): 7.2 h
range of exposure changes caused by carbamazepine between individuals ([1]; edoxaban): 3.1 fold
minimum exposure during carbamazepine, of baseline exposure ([1]; edoxaban, individual minimum): 26%
Vd/F [1, 4]: 918 L
Vd/F ([1]; 60 mg, 60 mg edoxaban, baseline): 432 L
Tmax ([1]; 60 mg, 60 mg edoxaban tablet, baseline): 1.12 h
Tmax [1, 4]: 1.07 h
AUC(0-inf) ([1]; po, 60 mg, single oral 60 mg edoxaban, baseline, N=12): 1440 ng·h/mL
AUC(0-inf) ([1]; po, 60 mg, single oral 60 mg edoxaban, during carbamazepine steady-state, N=12): 687 ng·h/mL
Cmax ([1]; po, 60 mg, single oral 60 mg edoxaban, during carbamazepine steady-state): 127 ng/mL
AUC(0-inf) ([1]; po, oral microdose cocktail (25 µg apixaban, 50 µg edoxaban, 25 µg rivaroxaban), baseline): 0.883 ng·h/mL
AUC(0-inf) [1, 5]: 0.517 ng·h/mL
Cmax [1, 6]: 0.119 ng/mL
Cmax [1, 5]: 0.083 ng/mL
Vd/F [1, 7]: 562 L
Vd/F [1, 6]: 403 L
Tmax [1, 7]: 1.48 h
CL/F ([1]; oral microdose cocktail, at carbamazepine steady-state): 96 L/h
CL/F [1, 8]: 56 L/h
t1/2 [1, 8]: 4.97 h
effect on exposure ([2]; 60 mg edoxaban, gabapentin steady-state): did neither affect the exposure; also recorded: did not alter the exposure; also recorded: did not change the exposure
AUC(0-inf) ([2]; 60 mg, single oral 60 mg edoxaban, baseline, N=11): 1250 ng·h/mL
AUC(0-inf) [2, 9]: 1220 ng·h/mL
Cmax ([2]; 60 mg, single oral 60 mg edoxaban, baseline): 227 ng/mL
Cmax [2, 9]: 182 ng/mL
AUC(0-inf) [2, 8]: 0.833 ng·h/mL
AUC(0-inf) [2, 10]: 0.933 ng·h/mL
Cmax [2, 8]: 0.112 ng/mL
Cmax [2, 10]: 0.118 ng/mL
effect on exposure ([3]; 60 mg edoxaban, pregabalin steady-state): did neither affect the exposure; also recorded: did not alter the exposure; also recorded: did not change the exposure
AUC(0-inf) ([3]; 60 mg, single oral 60 mg edoxaban, before pregabalin, N=12): 1120 ng·h/mL
AUC(0-inf) [3, 11]: 1050 ng·h/mL
Cmax ([3]; 60 mg, single oral 60 mg edoxaban, before pregabalin): 170 ng/mL
Cmax [3, 11]: 161 ng/mL
AUC(0-inf) [3, 12]: 1.18 ng·h/mL
AUC(0-inf) [3, 13]: 1.12 ng·h/mL
Cmax [3, 12]: 0.148 ng/mL
Cmax [3, 13]: 0.15 ng/mL
